Values of other authors in patent publication US20150001139A1, “REAL-TIME INTEGRITY MONITORING OF SEPARATION MEMBRANES” (THE REGENTS OF THE UNIVERSITY OF CALIFORNIA, priority 2013, published 2015).

Details: cited from earlier work

Structure (SMILES)	Solubility in Water
O=C([O-])c1ccccc1-c1c2ccc(=O)cc-2oc2cc([O-])ccc12.[Na+].[Na+] [Uranine]	40 mg/mL
O=S(=O)([O-])c1cc(Nc2nc(Nc3ccccc3)nc(N(CCO)CCO)n2)ccc1/C=C/c1ccc(Nc2nc(Nc3ccccc3)nc(N(CCO)CCO)n2)cc1S(=O)(=O)[O-].[Na+].[Na+] [Fluorescent brightener 28]	very soluble
